{"source": "PubChem BioAssay AID652083", "about": "(The Scripps Research Institute Molecular Screening Center, 2013)", "tested_on": "Cl# channel (GABA-gated)", "test": "PubChem AID 652083", "conditions": "CEREP radioligand binding panel, % inhibition at 10 uM, stronger effect = higher value", "note": "The list shows a part of the results. Calls of active or inactive are those of the source.", "data": [{"molecule": "COC(=O)c1cc(Br)cnc1N1CCC(NC2CCCCC2)C(O)C1", "note": "(stereo unspecified)", "values": [{"measurement": "inhibition of specific binding", "result": "inactive: 6%"}]}]}
